{"source": "ChEMBL document CHEMBL1125664", "about": "“Quaternary salts of 2-[(hydroxyimino)methyl]imidazole. 4. Effect of various side-chain substituents on therapeutic activity against anticholinesterase intoxication” (1991)"}
{"molecular_target": "T1, Acetylcholinesterase (Mus musculus) (UniProt P21836)", "T1 sequence (whole entry)": "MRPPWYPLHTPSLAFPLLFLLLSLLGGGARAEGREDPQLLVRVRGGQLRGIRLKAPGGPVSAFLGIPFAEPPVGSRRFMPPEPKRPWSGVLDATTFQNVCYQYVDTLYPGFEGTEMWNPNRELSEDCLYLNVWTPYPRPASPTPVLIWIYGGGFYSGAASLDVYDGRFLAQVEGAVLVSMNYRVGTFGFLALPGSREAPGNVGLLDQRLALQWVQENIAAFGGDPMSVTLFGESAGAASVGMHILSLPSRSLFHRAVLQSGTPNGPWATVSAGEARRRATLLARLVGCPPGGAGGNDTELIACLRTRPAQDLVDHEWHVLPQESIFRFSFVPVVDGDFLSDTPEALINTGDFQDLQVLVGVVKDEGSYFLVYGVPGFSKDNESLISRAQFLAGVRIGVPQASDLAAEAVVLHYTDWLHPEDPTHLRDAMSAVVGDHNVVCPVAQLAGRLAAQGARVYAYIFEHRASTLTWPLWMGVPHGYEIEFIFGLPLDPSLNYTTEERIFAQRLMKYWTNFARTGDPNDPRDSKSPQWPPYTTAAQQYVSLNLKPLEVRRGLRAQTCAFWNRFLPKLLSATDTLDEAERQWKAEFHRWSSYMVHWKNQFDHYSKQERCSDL", "assay": "Antidotal activity measured against soman in mice and activity expressed as the no. of survivors noted at 24 hr out of population of 10 mice each exposed intramuscularly at the dose 1/4 of 2LD50 of the compound"}
{"smiles": "C#CCCOC[n+]1ccn(C)c1/C=N/O", "Survival": 10}
{"smiles": "C[n+]1ccn(COCCC[Si](C)(C)C)c1/C=N/O", "Survival": 0}
{"smiles": "C[n+]1ccn(CCOCCCl)c1/C=N/O", "Survival": 8}
{"smiles": "C[n+]1ccn(CCOCCF)c1/C=N/O", "Survival": 9}
{"smiles": "CN(CCn1cc[n+](C)c1/C=N/O)S(=O)(=O)c1ccccc1", "Survival": 8}
{"smiles": "C[n+]1ccn(CCBr)c1/C=N/O", "Survival": 0}
{"smiles": "CN(CCn1cc[n+](C)c1/C=N/O)S(=O)(=O)C(F)(F)F", "Survival": 6}
{"smiles": "COCCOCn1cc[n+](C)c1/C=N/O", "Survival": 4}
{"smiles": "C[n+]1ccn(COCC[N+](=O)[O-])c1/C=N/O", "Survival": 2}
{"smiles": "C[n+]1ccn(CC[N+](=O)[O-])c1/C=N/O", "Survival": 2}
{"smiles": "C[n+]1ccn(CCF)c1/C=N/O", "Survival": 1}
{"smiles": "C[n+]1ccn(COCC(C)(C)CBr)c1/C=N/O", "Survival": 4}
{"smiles": "C[n+]1ccn(COCCCCCl)c1/C=N/O", "Survival": 0}
{"smiles": "C[n+]1ccn(COCC[Si](C)(C)C)c1/C=N/O", "Survival": 1}
{"smiles": "C[n+]1ccn(CCCCOC(=O)c2ccccc2O)c1/C=N/O", "Survival": 2}
{"smiles": "C[n+]1ccn(COCCCBr)c1/C=N/O", "Survival": 4}
{"smiles": "CN(C)CCn1cc[n+](C)c1/C=N/O", "Survival": 10}
{"smiles": "COC(=O)CCCCCn1cc[n+](C)c1/C=N/O", "Survival": 0}
{"smiles": "C[n+]1ccn(CCS(C)(=O)=O)c1/C=N/O", "Survival": 9}
{"smiles": "C[n+]1ccn(CCCCC#N)c1/C=N/O", "Survival": 1}
